Read-outs that look alike come from different tables or passages of the source.
How the values were obtained:
[1] = molecular target: electric eel acetylcholinesterase (AChE, Type-VI-S, EC 3.1.1.7) (Electrophorus electricus, UniProt O42275); assay: biochemical; details: for Selectivity index: IC50 (BuChE)/IC50 (AChE)
Description: (§1) The substrates of the reaction were acetylthiocholine iodide and butyrylthiocholine iodide. […] The reaction was initiated by the addition of 10 µL (7.1 mM) acetylthiocholine iodide (or 0.79 mM butyrylthiocholine iodide).

The chains behind the UniProt entries cited, without tags or fusion partners. Residues count along the entry.
UniProt O42275, 24-633: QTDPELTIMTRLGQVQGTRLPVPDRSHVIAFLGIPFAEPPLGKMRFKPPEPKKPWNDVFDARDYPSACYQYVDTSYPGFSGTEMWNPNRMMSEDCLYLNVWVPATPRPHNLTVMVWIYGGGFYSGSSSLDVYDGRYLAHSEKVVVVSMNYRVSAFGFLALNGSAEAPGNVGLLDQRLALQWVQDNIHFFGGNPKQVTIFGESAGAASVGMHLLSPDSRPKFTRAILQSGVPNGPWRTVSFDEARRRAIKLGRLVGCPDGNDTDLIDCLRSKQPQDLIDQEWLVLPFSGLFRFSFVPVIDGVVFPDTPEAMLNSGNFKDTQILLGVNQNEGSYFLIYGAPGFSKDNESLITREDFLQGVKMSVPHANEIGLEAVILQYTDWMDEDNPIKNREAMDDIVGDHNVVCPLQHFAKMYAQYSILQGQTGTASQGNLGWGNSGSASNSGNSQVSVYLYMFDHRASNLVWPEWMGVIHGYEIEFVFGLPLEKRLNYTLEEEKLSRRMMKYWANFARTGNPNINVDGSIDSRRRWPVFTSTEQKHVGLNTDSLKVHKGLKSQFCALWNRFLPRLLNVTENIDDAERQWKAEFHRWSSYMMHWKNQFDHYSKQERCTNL
UniProt P81908, whole entry: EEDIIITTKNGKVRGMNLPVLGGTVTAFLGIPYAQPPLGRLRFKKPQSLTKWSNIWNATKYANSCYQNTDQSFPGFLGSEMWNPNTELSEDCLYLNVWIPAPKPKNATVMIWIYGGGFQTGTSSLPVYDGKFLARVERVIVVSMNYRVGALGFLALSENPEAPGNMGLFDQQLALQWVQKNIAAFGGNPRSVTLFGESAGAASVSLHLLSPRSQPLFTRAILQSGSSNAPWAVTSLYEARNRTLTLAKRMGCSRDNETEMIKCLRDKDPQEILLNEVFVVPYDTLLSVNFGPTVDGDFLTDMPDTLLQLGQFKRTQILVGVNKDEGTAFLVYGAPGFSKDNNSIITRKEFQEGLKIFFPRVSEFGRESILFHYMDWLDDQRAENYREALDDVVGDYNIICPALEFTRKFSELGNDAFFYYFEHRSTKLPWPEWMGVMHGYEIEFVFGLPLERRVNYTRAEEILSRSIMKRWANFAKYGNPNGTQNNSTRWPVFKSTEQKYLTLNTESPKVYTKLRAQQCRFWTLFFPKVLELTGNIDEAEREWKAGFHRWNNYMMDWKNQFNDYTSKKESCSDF

[2] = molecular target: horse serum butyrylcholinesterase (BuChE, EC 3.1.1.8) (Equus caballus, UniProt P81908); assay: biochemical
Description: as §1

AChE = AChE (Electrophorus electricus, UniProt O42275); assay: biochemical
Description: The plots were assessed by a weighted least-squares analysis that assumed the variance of velocity (v) to be a constant percentage of v for the entire data set.

in vitro = details: rat, H4IIE hepatoma cells
[3] = read-out: AChE IC50, means ± SEM of three parallel measurements
[4] = read-out: BuChE IC50, means ± SEM of three parallel measurements

| Compound | IC50 [1] [nM] | Selectivity index [1] | IC50 [2] [µM] | other results |
| --- | --- | --- | --- | --- |
| CCN(CC)CC(=O)Nc1nc(-c2cc3ccccc3oc2=O)cs1 [Compound 6c, 2-(Diethylamino)-N-(4-(2-oxo-2H-chromen-3-yl)thiazol-2-yl)acetamide] | 43 ± 2 | 4151.16 | 178.5 ± 0.03 | AChE inhibition relative to PBI-1 ([1]; ratio of IC50 values): ~90 fold; AChE inhibition relative to PBI-2 ([1]; ratio of IC50 values): ~107 fold; AChE inhibition relative to galantamine ([1]; ratio of IC50 values): 56 fold; AChE inhibition relative to rivastigmine ([1]; ratio of IC50 values): 70 fold; AChE inhibition relative to tacrine ([1]; ratio of IC50 values): 4 fold; Ki (AChE): 31 nM; viability at 24 h, 0.07 µM (in vitro): 130 ± 5.1%; viability at 24 h, 0.15 µM (in vitro): 106 ± 2.4%; viability at 24 h, 0.3 µM (in vitro): 101 ± 0.9%; viability at 24 h, 0.6 µM (in vitro): 78 ± 7.3%; viability at 24 h, 1.25 µM (in vitro): 56 ± 5%; viability at 24 h, 2.5 µM (in vitro): 38 ± 4.1% |
| O=C(CN1CCCC1)Nc1nc(-c2cc3ccccc3oc2=O)cs1 [Compound 6g, N-(4-(2-oxo-2H-chromen-3-yl)thiazol-2-yl)-2-(pyrrolidin-1-yl)acetamide] | 1410 ± 1 | 67.95 | 95.81 ± 0.36 | – |
| COc1ccc(CCNCC(=O)Nc2nc(-c3cc4ccccc4oc3=O)cs2)cc1OC [Compound 6o, 2-((3,4-Dimethoxyphenethyl)amino)-N-(4-(2-oxo-2H-chromen-3-yl)thiazol-2-yl)acetamide] | 13530 ± 1 | 14.00 | 189 | – |
| O=C(CNCCC1=CCCCC1)Nc1nc(-c2cc3ccccc3oc2=O)cs1 [Compound 6n, 2-((2-(Cyclohex-1-en-1-yl)ethyl)amino)-N-(4-(2-oxo-2H-chromen-3-yl)thiazol-2-yl)acetamide] | 10240 ± 1 | 18.23 | 186.7 ± 0.36 | – |
| O=C(CNC1CCCCC1)Nc1nc(-c2cc3ccccc3oc2=O)cs1 [Compound 6f, 2-(Cyclohexylamino)-N-(4-(2-oxo-2H-chromen-3-yl)thiazol-2-yl)acetamide] | 3050 ± 2 | 55.14 | 168.2 ± 0.4 | – |
| O=C(CN1CCOCC1)Nc1nc(-c2cc3ccccc3oc2=O)cs1 [Compound 6j, 2-Morpholino-N-(4-(2-oxo-2H-chromen-3-yl)thiazol-2-yl)acetamide] | – | 48.33 | – | IC50 [1, 3]: 3780 ± 3 nM; IC50 [2, 4]: 182.7 ± 0.03 µM |
| O=C(CNCCN1CCOCC1)Nc1nc(-c2cc3ccccc3oc2=O)cs1 [Compound 6m, 2-((2-Morpholinoethyl)amino)-N-(4-(2-oxo-2H-chromen-3-yl)thiazol-2-yl)acetamide] | 90 ± 1 | 1747.67 | 157 ± 2.27 | – |
| N-(4-(2-oxo-2H-chromen-3-yl)thiazol-2-yl)-2-(piperidin-1-ylamino)acetamide [Compound 6s] | – | 18.54 | – | IC50 [1, 3]: 820 ± 2 nM; IC50 [2, 4]: 15.2 ± 0.82 µM |
| O=C(CN1CCCCC1)Nc1nc(-c2cc3ccccc3oc2=O)cs1 [Compound 6h, N-(4-(2-oxo-2H-chromen-3-yl)thiazol-2-yl)-2-(piperidin-1-yl)acetamide] | 730 ± 1 | 31.37 | 22.9 ± 0.12 | – |
| CCCCN(CCCC)CC(=O)Nc1nc(-c2cc3ccccc3oc2=O)cs1 [Compound 6d, 2-(Dibutylamino)-N-(4-(2-oxo-2H-chromen-3-yl)thiazol-2-yl)acetamide] | 1710 ± 2 | 105.44 | 180.3 ± 0.1 | – |
| O=C(CNCc1ccc2c(c1)OCO2)Nc1nc(-c2cc3ccccc3oc2=O)cs1 [Compound 6p, 2-((Benzo[d][1,3]dioxol-5-ylmethyl)amino)-N-(4-(2-oxo-2H-chromen-3-yl)thiazol-2-yl)acetamide] | 740 ± 1 | 81.55 | 60.35 ± 0.03 | – |
| CCCNCC(=O)Nc1nc(-c2cc3ccccc3oc2=O)cs1 [Compound 6b, N-(4-(2-oxo-2H-chromen-3-yl)thiazol-2-yl)-2-(propylamino)acetamide] | 2150 ± 2 | 88.05 | 189.3 ± 0.05 | – |
| CN1CCN(CC(=O)Nc2nc(-c3cc4ccccc4oc3=O)cs2)CC1 [Compound 6i, 2-(4-Methylpiperazin-1-yl)-N-(4-(2-oxo-2H-chromen-3-yl)thiazol-2-yl)acetamide] | 610 ± 1 | 12.16 | 7.42 ± 0.23 | – |
| CN1CCN(NCC(=O)Nc2nc(-c3cc4ccccc4oc3=O)cs2)CC1 [Compound 6r, 2-((4-Methylpiperazin-1-yl)amino)-N-(4-(2-oxo-2H-chromen-3-yl)thiazol-2-yl)acetamide] | 1120 ± 3 | 7.32 | 8.2 ± 0.59 | – |
| O=C(CNN1CCOCC1)Nc1nc(-c2cc3ccccc3oc2=O)cs1 [Compound 6q, 2-(Morpholinoamino)-N-(4-(2-oxo-2H-chromen-3-yl)thiazol-2-yl)acetamide] | 2520 ± 5 | 60.42 | 152.2 ± 0.75 | – |
| O=C(CNCCN1CCCC1)Nc1nc(-c2cc3ccccc3oc2=O)cs1 [Compound 6l, N-(4-(2-oxo-2H-chromen-3-yl)thiazol-2-yl)-2-((2-(pyrrolidin-1-yl)ethyl)amino)acetamide] | 170 ± 1 | 13.82 | 2.35 ± 0.65 | BuChE inhibition relative to donepezil ([2]; ratio of IC50 values): 2 fold; BuChE inhibition relative to galanthamine ([2]; ratio of IC50 values): 7.5 fold |
| 2-(Diisopropylamino)-N-(4-(2-oxo-2H-chromen-3-yl)thiazol-2-yl)acetamide [Compound 6e] | – | 19.66 | – | IC50 [1, 3]: 2290 ± 1 nM; IC50 [2, 4]: 45.02 ± 0.01 µM |
| CNCC(=O)Nc1nc(-c2cc3ccccc3oc2=O)cs1 [Compound 6a, 2-(Methylamino)-N-(4-(2-oxo-2H-chromen-3-yl)thiazol-2-yl)acetamide] | 2360 ± 3 | 51.58 | 121.72 ± 0.02 | – |
| O=C(CNC1Cc2ccccc2C1)Nc1nc(-c2cc3ccccc3oc2=O)cs1 [Compound 6k, 2-((2,3-Dihydro-1H-inden-2-yl)amino)-N-(4-(2-oxo-2H-chromen-3-yl)thiazol-2-yl)acetamide] | 920 ± 1 | 190.54 | 175.3 ± 0.15 | – |
